The record followed here is patent publication US10174035B2, “6-morpholinyl-2-pyrazolyl-9H-purine derivatives and their use as PI3K inhibitors” (Daiichi Sankyo Company, Limited, priority 2015, dated 2019).

The chains behind the UniProt entries cited, without tags or fusion partners. Where a name states a change or a piece, a line headed by the entry shows the natural chain unless it says otherwise.
UniProt O00329, whole entry, species assumed: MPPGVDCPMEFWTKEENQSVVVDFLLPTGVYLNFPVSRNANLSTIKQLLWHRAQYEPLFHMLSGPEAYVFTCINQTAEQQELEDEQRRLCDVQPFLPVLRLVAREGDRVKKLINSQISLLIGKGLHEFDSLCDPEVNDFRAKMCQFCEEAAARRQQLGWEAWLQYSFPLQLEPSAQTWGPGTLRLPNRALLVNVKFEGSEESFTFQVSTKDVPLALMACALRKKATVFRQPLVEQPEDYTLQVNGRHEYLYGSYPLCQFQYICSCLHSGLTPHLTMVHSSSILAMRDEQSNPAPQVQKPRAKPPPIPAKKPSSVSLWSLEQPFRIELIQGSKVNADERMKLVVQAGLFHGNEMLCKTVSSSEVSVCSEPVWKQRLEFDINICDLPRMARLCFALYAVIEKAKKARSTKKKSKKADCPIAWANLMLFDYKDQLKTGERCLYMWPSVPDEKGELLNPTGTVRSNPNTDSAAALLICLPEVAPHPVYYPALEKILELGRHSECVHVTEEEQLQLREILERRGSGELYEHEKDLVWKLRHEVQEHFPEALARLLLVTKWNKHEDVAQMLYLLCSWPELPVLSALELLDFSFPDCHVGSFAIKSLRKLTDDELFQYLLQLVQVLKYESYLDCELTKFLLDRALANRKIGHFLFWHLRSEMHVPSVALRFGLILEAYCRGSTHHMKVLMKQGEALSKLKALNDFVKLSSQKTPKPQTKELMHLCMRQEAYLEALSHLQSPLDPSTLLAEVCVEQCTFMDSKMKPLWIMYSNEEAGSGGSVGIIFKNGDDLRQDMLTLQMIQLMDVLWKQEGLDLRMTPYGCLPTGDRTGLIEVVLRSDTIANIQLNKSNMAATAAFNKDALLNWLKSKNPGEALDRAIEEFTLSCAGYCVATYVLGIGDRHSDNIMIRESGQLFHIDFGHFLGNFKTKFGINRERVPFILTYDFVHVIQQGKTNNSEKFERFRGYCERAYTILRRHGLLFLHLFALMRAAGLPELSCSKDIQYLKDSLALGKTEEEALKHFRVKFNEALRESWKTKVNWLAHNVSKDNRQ

For orientation: IC50 means the concentration that inhibits the measured activity by half.

The test addresses recombinant PI3K δ enzyme (Homo sapiens (Human), UniProt O00329). As to the kind of experiment: In vitro enzyme assay (Kinase-Glo luminescent kinase assay), PI3Kδ. Type of test: biochemical. The method, then:
The Kinase-Glo luminescent kinase assay kit (from Promega) was used to measure kinase activity. In this assay, amount of ATP remaining in solution following a kinase reaction is measured. The effect of compounds on PI3Kδ inhibition was carried out by adding 2.29 μg/ml of recombinant PI3K δ enzyme (Proteros, Germany) to reaction mixture containing assay buffer (50 mM HEPES, pH 7.4, 50 mM NaCl, 0.05% CHAPS) supplemented with 10 mM MgCl2, 5 mM DTT, 60 μM Phosphatidyl inositol bisphosphate (PIP2) and 10 μM ATP in the absence or presence of different concentrations of the compounds in a final volume of 15 μl/well, in a 384 well plate. The reaction mixture was incubated for 2 hours at room temperature. At the end of incubation period the equal volume of Kinase-Glo plus (Promega, V3772), was added per well and the luminescence was measured after incubating for 10 minutes at room temperature in dark. Results were calculated by measuring the luminescence units of test samples to blanks containing no enzyme.
The compounds of the present invention were tested for their selectivity for PI3Kδ over PI3Kα, PI3Kβ and PI3Kγ following the above assay using specific recombinant enzymes (Proteros, Germany) for each kinase. Assay condition of kinase assay (PI3Kα, PI3Kβ, PI3Kγ and PI3Kδ) was as follows. Enzyme: 2.29 μg/mL; ATP: 10 μM; PIP2 substrate: 60 μM and Reaction Time: 2 hours.
(In general: Kinase-Glo reads ATP consumption through a luciferase reaction.)

As for `C[C@@H]1CN(C2CCN(C(=O)c3nc4c(N5CCOCC5)nc(-c5cnn(C)c5)nc4[nH]3)CC2)C[C@H](C)O1` [compound 5, {4-[cis-2,6-Dimethylmorpholin-4-yl]piperidin-1-yl}[2-(1-methyl-1H-pyrazol-4-yl)-6-(morpholin-4-yl)-9H-purin-8-yl]methanone], the IC50 is 11 nM.

With `C[C@@H]1CN(C2CCN(C(=O)c3nc4c(N5CCOCC5)nc(-c5cn[nH]c5)nc4[nH]3)CC2)C[C@H](C)O1` [compound 65, {4-[cis-2,6-Dimethylmorpholin-4-yl]piperidin-1-yl}[6-(morpholin-4-yl)-2-(1H-pyrazol-4-yl)-9H-purin-8-yl]methanone], the concentration for half-maximal inhibition (IC50) came out at 12 nM.

Turning to `Cc1nn(C)cc1-c1cc(N2CCOCC2)c2nc(C(=O)N3CCC(N4C[C@@H](C)O[C@@H](C)C4)CC3)[nH]c2n1` [compound 113, {4-[cis-2,6-Dimethylmorpholin-4-yl]piperidin-1-yl}[5-(1,3-dimethyl-1H-pyrazol-4-yl)-7-(morpholin-4-yl)-3H-imidazo[4,5-b]pyridin-2-yl]methanone], the concentration for half-maximal inhibition (IC50) is 6 nM.
